Experimental data reported in PMC12057359, “Inhibitory effect of copper chelators on the budding in Candida albicans” (Antimicrobial Agents and Chemotherapy, 2025).

System: C. albicans JCM1542
Conditions: C. albicans JCM1542, MOPS-RPMI medium, 24 h

Substance: sodium nitroprusside dihydrate
- morphological change induced in C. albicans: completely distinct from those of the copper chelators

This is a selection: effects in other tests are not listed, and their absence says nothing.
